The numbers were not newly measured in PMC3759941 (International Journal of Molecular Sciences, 2013), which cites them from elsewhere.

The structures appear in SMILES notation.

This series has as its system EeAChE. The following applies: read-out: IC50 values EeAChE; Table 3.

A word on the IC50: it is the concentration at which inhibition is half-maximal. Take `ON=Cc1cc[n+](COC[n+]2ccc(C=NO)cc2)cc1`: the IC50 is 6.7 mM.
